From patent publication EP2944190A1 (ETH Zurich, dated 2015)

Biological target: T1, GBSS recombinant protein of Arabidopsis thaliana (lacking the predicted chloroplast transit peptide, amino … (Arabidopsis thaliana, UniProt Q9MAQ0 80-610))
T1 construct: mature; Expressed in E. coli and purified on Ni2+-NTA agarose; also called GBSS-His; AtGBSS; not shown: C-terminal His-tag from the pET24a+ vector
T1 sequence (looked up): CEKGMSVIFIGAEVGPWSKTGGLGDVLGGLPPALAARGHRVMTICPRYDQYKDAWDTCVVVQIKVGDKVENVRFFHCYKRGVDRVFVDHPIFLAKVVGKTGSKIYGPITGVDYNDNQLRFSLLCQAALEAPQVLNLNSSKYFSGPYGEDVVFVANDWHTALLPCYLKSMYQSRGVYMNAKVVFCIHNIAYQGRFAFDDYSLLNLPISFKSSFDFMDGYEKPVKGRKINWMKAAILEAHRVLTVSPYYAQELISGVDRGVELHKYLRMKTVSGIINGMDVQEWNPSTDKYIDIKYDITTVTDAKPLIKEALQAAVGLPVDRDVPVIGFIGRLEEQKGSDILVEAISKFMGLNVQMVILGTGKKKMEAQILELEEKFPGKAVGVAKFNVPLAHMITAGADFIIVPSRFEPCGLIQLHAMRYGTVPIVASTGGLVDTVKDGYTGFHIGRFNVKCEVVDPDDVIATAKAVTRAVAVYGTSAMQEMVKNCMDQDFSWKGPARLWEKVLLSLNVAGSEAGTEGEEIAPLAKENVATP
Assay: Ni2+-NTA pull-down with recombinant proteins, immunoblot with anti-GST and anti-PentaHis

B1: Free GST (glutathione-S-transferase) purified from cells harbouring the empty pGEX-4T-2 vector (other, UniProt P08515 1-218, looked up)
chain: MSPILGYWKIKGLVQPTRLLLEYLEEKYEEHLYERDEGDKWRNKKFELGLEFPNLPYYIDGDVKLTQSMAIIRYIADKHNMLGGCPKERAEISMLEGAVLDIRYGVSRIAYSKDFETLKVDFLSKLPEMLKMFEDRLCHKTYLNGDHVTHPDFMLYDALDVVLYMDPMCLDAFPKLVCFKKRIEAIPQIDKYLKSSKYIAWPLQGWQATFGGGDHPPK
notes: Control protein in the pull-down assay
Does B1 bind?
Result: no binding (tested: 1 µg each)
